Source: PubChem
miR122 inh – miR-122 Renilla sensor signal increase in Huh7, primary screen, miR-122 inhibitor project, cell-based, single point, plate reader. Huh7 miR-122 Renilla luciferase sensor, 48 h; neutral wells = 0, positive control = 100. activation (reporter increase), % at 12.5 µM. 0.3% of 340,000 active. AID 602342, 2012;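 active = mean replicate activation score at least 90 and every replicate individually at or above 90; inconclusive = only one of the two criteria met; inactive = neither criterion met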;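 also: higher luciferase means less miR-122 activity so hits act as miR-122 inhibitors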
MITF act – activators of MITF-driven TRPM1 promoter reporter, primary screen, cell-based, SK-MEL-5, luciferase, single point; SK-MEL-5 TRPM1-promoter luciferase, 24 h; % of positive control, neutral wells = 0; 0.75% of 300,000 active; activation, % at 12.5 µM;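 active = mean activation of at least 80% with every replicate also reaching 80%; inconclusive = mean reaches 80% but some replicate falls short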;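 also: 0% = neutral control wells and 100% = parthenolide positive control wells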
Wnt act – Wnt/beta-catenin pathway activators, primary screen, cell-based, plate reader, single point. 1.2% of 300,000 active. AID 743398, 2014. Wnt/beta-catenin reporter cell assay, activator. activation, % at 9.35 µM; in the data active = activation above about 30%, passing the limit was not always enough; inconclusive = no clear call, values can overlap the other calls;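 also: 0% = neutral control wells and 100% = positive control wells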
PglD DTNB – C. jejuni PglD acetyltransferase inhibitors, primary screen, biochemical, DTNB colorimetric, single point | UDP-N-acetylbacillosamine N-acetyltransferase PglD (Campylobacter jejuni) | purified PglD enzyme, DTNB colorimetric CoA detection | inhibition, % at 12.5 µM | 0.098% of 360,000 active | AID 602405, 2012; in the data active = inhibition above about 16%, passing the limit was not always enough; inconclusive = no clear call, values can overlap the other calls
esBAF inh – Bmi1 luciferase reporter increase in mESCs, primary screen, esBAF inhibitor project, mouse ES cells, Bmi1 luciferase knock-in, single point. 24 h; 100% = twice the neutral-well signal. reporter increase, % at 12.5 µM. 2% of 350,000 active; in the data active = activation above about 40%; inconclusive = no clear call, values can overlap the other calls;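 also: 0% = median of the plate's neutral control wells and 100% = double that signal; a rise in the Bmi1 reporter signal indicates esBAF inhibition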
UUG fidelity – alters start codon recognition fidelity in yeast. S. cerevisiae UUG-firefly luciferase reporter, luminescence/redox ratio. 350,000 tested, 0.13% active. activity score, % at 18.7 µM. AID 602363;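 active means replicate mean at a twofold rise or more, about +100% in these data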;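 further: firefly luciferase made from a UUG start codon reports start codon fidelity; reporter light over untreated wells divided by growth signal over untreated wells; some hits fall short of that in this replicate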
* = called active by the depositor; ? = inconclusive; . = not tested or not shown; [ ] = dose if it differs, or a comment. Sampled rows, rich in hits. Any-hit rate of the full collection: about 2.8%.

Letters: A = miR122 inh; B = MITF act; C = Wnt act; D = PglD DTNB; E = esBAF inh; F = UUG fidelity
> CN1C(=O)c2cc(NC(=O)c3cccc(C(F)(F)F)c3)ccc2OC[C@H]2O[C@H](CC(=O)NCCN3CCCC3)CC[C@@H]21
  A = 12[16.7 µM]	B = .	C = .	D = 2	E = 0	F = 5

> CN(C)CCCNC(=O)C[C@@H]1CC[C@H]2[C@@H](COc3ccc(NS(C)(=O)=O)cc3C(=O)N2C)O1
  A = -28[16.7 µM]	B = .	C = .	D = 0	E = 7	F = .

> CC(=O)Nc1ccc(NC(=O)c2cc(-c3ccc(F)cc3C)n[nH]2)cc1
  A = -7	B = .	C = 13	D = -2	E = 61*	F = -14

> Cc1cc(F)ccc1-c1cc(C(=O)Nc2ccccc2)[nH]n1
  A = 5	B = .	C = 3	D = 0	E = -60	F = -19

> N/C(=N\N=C\c1ccc(O)c(O)c1)c1nonc1N
  A = -7	B = 61	C = -1	D = .	E = 65*	F = .

> COc1cc(/C=N/N=C(\N)c2nonc2N)ccc1O
  A = 4	B = 53	C = 18	D = .	E = .	F = .

> Nc1nonc1C(=O)N/N=C/c1ccc(Br)o1
  A = .	B = .	C = -1	D = .	E = .	F = .

> N/C(=N\N=C\c1ccc(O)cc1)c1nonc1N
  A = 2	B = 65	C = 49*	D = .	E = .	F = .

> N/C(=N\N=C\c1ccc(Br)o1)c1nonc1N
  A = .	B = 118*	C = 23	D = .	E = .	F = .

> COCCNC(=O)C[C@H]1CC[C@@H]2[C@H](COc3ccc(NC(=O)Cc4ccccc4)cc3C(=O)N2C)O1
  A = -27[16.7 µM]	B = .	C = .	D = 2	E = -1	F = .

3 entries out of the list above, ordered by their value in UUG fidelity, falling:
Letters: A = miR122 inh; B = MITF act; C = Wnt act; D = PglD DTNB; E = esBAF inh; F = UUG fidelity
> CN1C(=O)c2cc(NC(=O)c3cccc(C(F)(F)F)c3)ccc2OC[C@H]2O[C@H](CC(=O)NCCN3CCCC3)CC[C@@H]21
  A = 12[16.7 µM]	B = .	C = .	D = 2	E = 0	F = 5

> CC(=O)Nc1ccc(NC(=O)c2cc(-c3ccc(F)cc3C)n[nH]2)cc1
  A = -7	B = .	C = 13	D = -2	E = 61*	F = -14

> Cc1cc(F)ccc1-c1cc(C(=O)Nc2ccccc2)[nH]n1
  A = 5	B = .	C = 3	D = 0	E = -60	F = -19

(listing goes on)
Letters: A = miR122 inh; B = MITF act; C = Wnt act; D = PglD DTNB; E = esBAF inh; F = UUG fidelity
> C/C=C/c1cnc2c(c1)C(=O)N([C@@H](C)CO)C[C@H](C)[C@@H](CN(C)C(=O)NC1CCCC1)O2
  A = -3[16.7 µM]	B = .	C = .	D = 0	E = -2	F = -6

> COc1ccc(-n2nnc3c(SCC(=O)N4CCCc5ccccc54)ncnc32)cc1
  A = -8	B = -16	C = 50*	D = -1	E = 1	F = -19

> COc1ccc(-n2nnc3c(=O)n(CC(=O)N4CCCc5ccccc54)cnc32)cc1
  A = .	B = .	C = -5	D = -5	E = -8	F = 2

> CC(C)c1ccc(NC(=O)c2snc3ccc(Cl)cc23)cc1
  A = 40	B = 120*	C = 22	D = .	E = ?	F = .

> CC(C)c1ccc(NC(=O)c2csnn2)cc1
  A = 1	B = 84*	C = 20	D = -1	E = -12	F = -40

> CC(C)c1ccc(NC(=O)c2n[nH]c(=O)c3ccccc23)cc1
  A = -3	B = 39	C = 9	D = .	E = 60*	F = .

> O=C(Nc1ccccc1NC(=O)c1csnn1)c1csnn1
  A = .	B = .	C = -1	D = .	E = .	F = .

> COC(=O)C(C(=O)OC)c1ccc(NC(=O)c2cccc(Cl)c2)cc1
  A = .	B = 31	C = 18	D = .	E = .	F = .

> Cc1noc(C)c1S(=O)(=O)N(C)C[C@@H]1OCCCC[C@@H](C)Oc2ccc(NS(=O)(=O)c3cccs3)cc2C(=O)N([C@H](C)CO)C[C@H]1C
  A = -5[16.7 µM]	B = .	C = .	D = -2	E = 3	F = 21

> O=C(c1ccccc1)N1C[C@@H]2[C@H](c3ccccc31)[C@H](CO)N2C(=O)c1cccc(F)c1
  A = 10[16.7 µM]	B = .	C = .	D = -5	E = 3	F = 21

Taken from above:
N/C(=N\N=C\c1ccc(O)cc1)c1nonc1N | MITF act = 65
COc1ccc(-n2nnc3c(SCC(=O)N4CCCc5ccccc54)ncnc32)cc1 | Wnt act = 50*

Carrying on:
Letters: A = miR122 inh; B = MITF act; C = Wnt act; D = PglD DTNB; E = esBAF inh; F = UUG fidelity
> O=C(NNC(=O)c1cccc2ccccc12)c1ccc(Cl)c(Cl)c1
  A = -9	B = -4	C = -4	D = 4	E = 9	F = -17

> COc1ccc(C(=O)NNC(=O)c2cccc3ccccc23)cc1
  A = .	B = 40	C = 5	D = -3	E = 54*	F = -10

> COc1ccc(C(=O)Nc2cccc3ccccc23)cc1
  A = .	B = .	C = 0	D = -1	E = 52*	F = -13

> COc1ccc(C(=O)Nc2ccccc2NC(=O)c2ccc(OC)cc2)cc1
  A = 4	B = 16	C = 2	D = 0	E = 1	F = -8

> O=C(NNC(=O)c1cccc2ccccc12)c1ccc2c(c1)OCO2
  A = 2	B = 50	C = -2	D = -10	E = 54*	F = 2

> COc1ccc(C(=O)NC(=S)Nc2ccccc2F)cc1
  A = .	B = 45	C = 34*	D = .	E = .	F = .

> COc1cccc(C(=O)NNC(=O)c2cccc3ccccc23)c1
  A = -2	B = 23	C = -3	D = -6	E = 17	F = -28

> O=C(Nc1ccc(C(F)(F)F)cc1)N[C@H]1CC[C@@H](CC(=O)N2CCCCC2)O[C@H]1CO
  A = .	B = .	C = .	D = -1	E = 5	F = 11

> O=C(C[C@@H]1C[C@H]2c3cc(NC(=O)C4CCOCC4)ccc3O[C@H]2[C@@H](CO)O1)NC1CCCCC1
  A = -4[16.7 µM]	B = .	C = .	D = 0	E = 4	F = -2

> Cc1c(C(=O)N(CCO)Cc2ccccc2)oc2c(F)cccc12
  A = 3	B = .	C = 4	D = -2	E = 59*	F = -7

Remaining list, next part:
Every second line gives: miR122 inh	MITF act	Wnt act	PglD DTNB	esBAF inh	UUG fidelity
Cc1cc(Cl)c2oc(C(=O)N(CCO)Cc3ccccc3)c(C)c2c1
→ 7	19	7	1	-3	-7
COc1ccc(-c2ccc3n(c2=O)C[C@@H]2[C@@H](CO)[C@H](C(=O)N4CCOCC4)[C@H]3N2C)cc1
→ .	.	.	-5	-5	.
COc1cccc(NC(=O)CSc2nc(C)cs2)c1
→ -5	.	-1	3	4	10
CCc1cccc(NC(=O)CSc2nc(C)cs2)c1
→ -2	.	-3	7	82*	-13
CCc1cccc(NC(=O)Nc2cccs2)c1
→ -2	77	.	3	59*	-16
COc1ccc(CN2C[C@@H](C)[C@H](OC)CN(C)C(=O)c3ccc(NC(=O)C4CC4)cc3OC[C@H]2C)cc1
→ -1[16.7 µM]	.	.	0	5	-5
CC(C)(C)C(=O)OCc1nc(-c2ccc(Cl)cc2)cs1
→ -6	77	-5	3	65*	-25
CC(C)(C)C(=O)OCc1nc(-c2ccc(F)cc2)cs1
→ 7	110*	0	-1	?	-17
C[C@@H]1CN([C@@H](C)CO)C(=O)c2cc(NC(=O)Nc3ccccc3)ccc2O[C@@H](C)CCCCO[C@H]1CN(C)CC1CCCCC1
→ 11[16.7 µM]	.	.	0	-3	8
C[C@H]1CN([C@@H](C)CO)C(=O)c2cc(Br)cnc2O[C@H]1CN(C)C(=O)Nc1ccccc1
→ 1[16.7 µM]	.	.	1	-4	-7
COc1ccccc1CNC(=O)C(C)Sc1ccsc1[N+](=O)[O-] (stereo unspecified)
→ .	1	-2	.	.	.
CC(Sc1ccsc1[N+](=O)[O-])C(=O)NCc1ccccc1 (stereo unspecified)
→ .	.	54*	.	.	.
CC(=O)N1[C@@H]2c3ccc(-c4ccccc4)c(=O)n3C[C@H]1[C@H](CO)[C@H]2C(=O)N1CCN(C)CC1
→ 0[16.7 µM]	.	.	-2	-6	.
Oc1ccccc1-c1cc(-c2cccc(F)c2)n[nH]1
→ 2	.	.	2	45*	-51
CC(C)(C)c1ccc(-c2cc(-c3ccccc3O)[nH]n2)cc1
→ 11	-4	-2	5	-32	-47
C[C@H](CO)N1C[C@H](C)[C@@H](CN(C)C(=O)Cc2ccccc2)OCCCC[C@H](C)Oc2ccc(NC(=O)Nc3ccc4c(c3)OCO4)cc2C1=O
→ 3[16.7 µM]	.	.	-2	-4	-10
CC1Sc2ccc(C(=O)Nc3ccccc3OC(F)F)cc2NC1=O (stereo unspecified)
→ .	62	35*	.	.	.
CC1Sc2ccc(C(=O)OCc3ccccc3Cl)cc2NC1=O (stereo unspecified)
→ -3	186*	?	2	.	-3
